Structures are written as SMILES.

This assay has as its target Carbonic anhydrase 2 (Homo sapiens, UniProt P00918).

By Ki is commonly meant the dissociation constant of the complex between target and ligand, obtained from inhibition or displacement. In turn, `O=Cc1ccccc1OCc1cn(CCCOc2ccc3ccc(=O)oc3c2)nn1` had a Ki above 10 µM.

The values are drawn from ChEMBL document CHEMBL4311974, “Synthesis of coumarin-sulfonamide derivatives and determination of their cytotoxicity, carbonic anhydrase inhibitory and molecular docking studies” (Eur J Med Chem, 2019).
